“And” between values parts separate entries of the source, which are not always exact repeats. Equal entries are not always repeated. Where two headings read alike, the source gives them in different places.
Assays:
NMDA PCP site = NMDA PCP site (Rattus norvegicus, UniProt P35439); conditions: cited from earlier work
activated NMDA receptors = activated NMDA receptors (Rattus norvegicus, UniProt P35439); test: [^18F]FNM microPET/CT brain uptake after stereotaxic quinolinic acid (QA) injection; conditions: for mean SUVR of the [^18F]FNM uptake VOI (SUV area/SUV cerebellum): injured rats, frontal and left somatosensory areas
[1] = NaCl_right cortex, 24 h post-injury
[2] = NaCl_right cortex, 72 h post-injury
[3] = QA_left_cortex, 72 h post-injury

Question: With “[^3H]N-(1-[thienyl]cyclohexyl)piperidine” as the substance, how does the Kd (NMDA PCP site; rat forebrain, ref Bénavidès et al. 32) read?
Answer: Its Kd is 21 nM.

Question: And the Kd (NMDA PCP site; rat frontal cortex, ref Vignon et al. 31)?
Answer: The Kd was 6.5 nM.

Question: And the Kd (NMDA PCP site; rat hippocampus, ref Vignon et al. 31)?
Answer: Its Kd is 5.5 nM.

Question: With [^18F]-fluoroethylnormemantine as the substance, how does the “Mean number of voxels ± SD with z-score > 3” value (“Mean number of voxels ± SD” for short) (activated NMDA receptors; [1]) read?
Answer: Its value is 153 ± 4.

Question: And the “percentage of voxels with z-score > 3 (mean ± SD)” value (“percentage of voxels … (mean ± SD)” for short) (activated NMDA receptors; [1])?
Answer: Its value is 0.7 ± 0.03%.

Question: And the “Mean number of voxels ± SD” value (activated NMDA receptors; [2])?
Answer: Its value is 141 ± 58.

Question: What about the “percentage of voxels … (mean ± SD)” value (activated NMDA receptors; [2]) of the same substance?
Answer: Its value is 0.7 ± 0.5% and 0.65 ± 0.46%.

Question: And the “percentage of voxels … (mean ± SD)” value (activated NMDA receptors; QA_left_cortex, 24 h post-injury)?
Answer: Its value is 12.1 ± 7.7%.

Question: What about the “Mean number of voxels ± SD” value (activated NMDA receptors; [3]) of the same substance?
Answer: The value was 1644 ± 624.

Question: And the “percentage of voxels … (mean ± SD)” value (activated NMDA receptors; [3])?
Answer: The value was 7.5 ± 6.4% and 7.54 ± 6.40%.

Question: And the “mean SUVR (SUV area/SUV cerebellum)” value (activated NMDA receptors; frontal and somatosensory areas of controls (non-injured rats))?
Answer: The value was 1.10 ± 0.12.

Question: What about the “mean SUVR of the [^18F]FNM uptake VOI (SUV area/SUV cerebellum)” value (activated NMDA receptors; 24 h after injury) of the same substance?
Answer: Its value is 1.51 ± 0.08.

Question: What about the “mean SUVR of the [^18F]FNM uptake VOI (SUV area/SUV cerebellum)” value (activated NMDA receptors; 72 h after injury) of the same substance?
Answer: The value was 1.55 ± 0.15.
